The list is not random: actives were taken first. Their share in the collection is about 1.8%.
MLL AF4-AF9 inh = MLL-AF4/AF9 protein interaction inhibition. actives 0.47% (n = 350,000). AID 651704. inhibition, % at 10 µM. AlphaScreen, biotin-AF4 peptide binding to FLAG-AF9;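 active = every replicate reaching a set inhibition limit, whatever the replicate mean, cut at about 25% in these data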;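 note: 0% = plate neutral control median and 100% = total signal loss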
Yeast UUG start = modulators of yeast start codon fidelity, primary screen, whole organism, S. cerevisiae, single point, plate reader | AID 602363, 2012 | actives 0.13% (n = 350,000) | activity score, % at 18.7 µM | S. cerevisiae UUG-firefly luciferase reporter, luminescence/redox ratio;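 active means replicate mean at a twofold rise or more, about +100% in these data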;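 further: firefly luciferase made from a UUG start codon reports start codon fidelity; reporter light over untreated wells divided by growth signal over untreated wells; some hits fall short of that in this replicate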
SIRT5 inh = inhibitors of human sirtuin-5 desuccinylase. Purified SirT5, succinyl-peptide AMC, trypsin-coupled fluorescence. inhibition, % at 15 µM. actives 1.1% (n = 330,000). AID 652115; in the data active = inhibition above about 15%
E-sel inducer = induces E-selectin expression in human endothelial cells. P16581. HUVEC E-selectin immunofluorescence imaging; normalized: neutral wells 0, TNF-alpha wells 100. activation, % at 7.58 µM. actives 0.37% (n = 260,000). AID 686992;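 active = mean E-selectin-positive cell signal at least 10% of the positive control, reached in at least 60% of replicates, without over 20% cell loss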
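material = human umbilical vein endothelial cells (HUVEC), E-selectin induction | quantity = 3,000 cells/well | medium = EGM-2 growth medium on 0.1% gelatin-coated wells | technique = immunofluorescence imaging | read-out basis = % PE-positive cells | control set = TNF-alpha positive control, DMSO neutral control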
RAD52 anneal inh = inhibitors of human RAD52 DNA annealing | recombinant RAD52 DNA annealing, FRET fluorescence | actives 0.46% (n = 360,000) | P43351 | inhibition, % at 18.7 µM;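 active = every replicate showing at least 50% inhibition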
RAD54 inh = blocks human RAD54 Holliday junction branch migration. Q92698. FAM/BHQ fluorescence. inhibition, % at 10.4 µM. actives 0.14% (n = 360,000). AID 602329;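 active = mean normalized replicate activity at least 40 and at least half of replicates scoring 40 or more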;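 note: 0% = median of neutral control wells and 100% = median of positive control wells; inhibitors cause a drop in the FAM fluorescence signal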
The depositor's hits bear a star; / = no result; ! = not active in a repeat.

SMILES	MLL AF4-AF9 inh	Yeast UUG start	SIRT5 inh	E-sel inducer	RAD52 anneal inh	RAD54 inh
Cc1noc(C)c1S(=O)(=O)Nc1ccc2c(c1)CC(=O)N([C@@H](C)CO)C[C@@H](C)[C@H](CN(C)Cc1ccncc1)O2	-3	-6	-3	/	1	11
C[C@@H]1CN([C@@H](C)CO)C(=O)Cc2cc(NS(C)(=O)=O)ccc2O[C@H]1CN(C)Cc1ccncc1	-2	-15	-2	440*	-12	-5
C[C@@H]1CN([C@H](C)CO)C(=O)Cc2cc(NS(C)(=O)=O)ccc2O[C@@H]1CN(C)Cc1ccncc1	-4	-6	-3	7	0	-1
Cc1noc(C)c1S(=O)(=O)Nc1ccc2c(c1)CC(=O)N([C@H](C)CO)C[C@H](C)[C@H](CN(C)Cc1ccncc1)O2	-3	-13	20*	/	-11	0
Cc1noc(C)c1S(=O)(=O)Nc1ccc2c(c1)CC(=O)N([C@@H](C)CO)C[C@@H](C)[C@H](CN(C)Cc1ccc(-c3ccccc3)cc1)O2	1	/	6	-1	-1	/
Cc1ccc(S(=O)(=O)N[C@@H]2CC[C@H](CCn3cc(C4CCCC4)nn3)O[C@@H]2CO)cc1	0	/	-3	0	8	/
O=C(C[C@@H]1CC[C@@H]2[C@H](COC[C@@H](O)CN2CC2CC2)O1)NCC1CC1	-1	/	2	0	-2	5
COc1cccc(NC(=O)N2CC(=O)N3[C@H](C2)[C@H](c2ccc(C4=CCCCC4)cc2)[C@@H]3CO)c1	6	/	/	0	-8	/
COc1ccccc1NC(=O)N1CC(=O)N2[C@H](CO)[C@@H](c3ccc(C#Cc4ccc(F)cc4)cc3)[C@@H]2C1	-3	/	10	-1	1	/
CCCCN1C(=O)/C(=C/C=C2\SCCN2C)SC1=S	16	/	5	38*	-25	/
COc1ccc(NC(=O)c2ccccc2)c([N+](=O)[O-])c1	5	/	-4	-1	-31	/
COc1ccc(NC(=O)c2ccc(-n3cnnn3)cc2)c([N+](=O)[O-])c1	26*	-8	-6	/	-21	1
O=C(C[C@@H]1C[C@H]2c3cc(NS(=O)(=O)c4ccc(F)cc4)ccc3O[C@H]2[C@@H](CO)O1)NC1CCCC1	-1	1	-3	0	-3	-3
COc1ccc(C)cc1NC(=O)CCNC(=O)Cn1cnc2ccccc2c1=O	2	-18	18*	0	6	-4
Cc1ccc(S(=O)(=O)N2[C@@H](c3ccccc3)C(C(=O)O)=CC[C@H]2c2ccc(Cl)cc2)cc1	-13	42	26*	0	-8	17
C[C@@H]1CN([C@H](C)CO)C(=O)c2cc(NC(=O)C3CCCCC3)ccc2O[C@H]1CN(C)S(=O)(=O)c1ccc(Cl)cc1	-3	13	2	0	-2	5
Cc1ccc(-c2ccc(C3[C@H]4CNC[C@@H]3N4Cc3cccc(F)c3)cc2)cc1 (stereo partly specified)	1	/	9	0	4	/
Fc1cccc(-c2ccc(C3[C@H]4CNC[C@@H]3N4Cc3cccnc3)cc2)c1 (stereo partly specified)	5	/	-2	0	16	/
Fc1cccc(CN2[C@@H]3CNC[C@H]2C3c2ccc(-c3ccncc3)cc2)c1 (stereo partly specified)	30*!	/	3	0	65*!	/
c1ccc(-c2ccc(C3[C@H]4CNC[C@@H]3N4Cc3cccc(-c4ccncc4)c3)cc2)cc1 (stereo partly specified)	4	/	1	0	59*	/
CN(C)CCN1CCN(C2CN(Cc3cn(Cc4cccc(Cl)c4)nn3)S(=O)(=O)C2)CC1 (stereo unspecified)	0	/	19*	4	-11	/
CC1(C)C[C@H](O)[C@]2(CO)[C@H](O)C[C@]3(C)C(=CCC4[C@@]5(C)CC[C@H](O)C(C)(C)C5CC[C@]43C)[C@@H]2C1 (stereo partly specified)	46*	-16	/	0	-2	6
Cc1cc(C)nc(N2CCC(C(=O)NCCc3ccc(Cl)cc3)CC2)n1	0	-14	15*	0	-17	2
Cc1cc(C)nc(N2CCC(C(=O)NCCc3ccc(F)cc3)CC2)n1	/	-15	-2	/	-13	-6
C=CCNC(=O)CC1C(=O)NCCN1Cc1c(F)cccc1Cl (stereo unspecified)	-1	/	32*	/	-18	/

Entries of single compounds as entered above:
Cc1ccc(-c2ccc(C3[C@H]4CNC[C@@H]3N4Cc3cccc(F)c3)cc2)cc1 (stereo partly specified) is entered as MLL AF4-AF9 inh: 1; Yeast UUG start: /; SIRT5 inh: 9; E-sel inducer: 0; RAD52 anneal inh: 4; RAD54 inh: /
Fc1cccc(-c2ccc(C3[C@H]4CNC[C@@H]3N4Cc3cccnc3)cc2)c1 (stereo partly specified) is entered as MLL AF4-AF9 inh: 5; Yeast UUG start: /; SIRT5 inh: -2; E-sel inducer: 0; RAD52 anneal inh: 16; RAD54 inh: /

2 records picked at random from the list so far, as already listed:
SMILES	MLL AF4-AF9 inh	Yeast UUG start	SIRT5 inh	E-sel inducer	RAD52 anneal inh	RAD54 inh
Cc1noc(C)c1S(=O)(=O)Nc1ccc2c(c1)CC(=O)N([C@@H](C)CO)C[C@@H](C)[C@H](CN(C)Cc1ccncc1)O2	-3	-6	-3	/	1	11
C[C@@H]1CN([C@@H](C)CO)C(=O)Cc2cc(NS(C)(=O)=O)ccc2O[C@H]1CN(C)Cc1ccncc1	-2	-15	-2	440*	-12	-5

Additional compounds.
SMILES	MLL AF4-AF9 inh	Yeast UUG start	SIRT5 inh	E-sel inducer	RAD52 anneal inh	RAD54 inh
CC(C)(C)NC(=O)CC1C(=O)NCCN1Cc1c(F)cccc1Cl (stereo unspecified)	-6	/	-2	/	-10	/
Cc1cccc(-c2ccc([C@@H]3[C@@H](CO)N4C(=O)CN(C(=O)NC5CCCCC5)C[C@H]34)cc2)c1	2	/	0	0	-7	/
C/C(=N\Nc1ccc(Cl)c(C(=O)O)c1)c1ccc[nH]1	-12	/	24*	0	-40	/
O=C(c1cnccn1)N1CC(=O)N2[C@H](C1)[C@H](c1ccc(C#CCc3ccccc3)cc1)[C@@H]2CO	17	/	3	0	7	/
O=C(O)c1ccc(/C=C2/SC(=S)N(Cc3ccccc3)C2=O)cc1	3	-19	-1	0	-4	-4
CC(=O)Oc1ccc(/C=C2/SC(=S)N(Cc3ccccc3)C2=O)cc1	-1	3	16*	/	-49	-8
O=C1O[C@H](c2ccccc2)[C@H](c2ccccc2)N2[C@H]1[C@@H](C(=O)N1CCCCCCC1)[C@]1(C(=O)Nc3ccc(C#CC4=CCCCC4)cc31)[C@H]2c1ccccc1OCCO	1	-12	8	/	-118	-14
CO[C@H]1CN(C)C(=O)c2ccc(NS(=O)(=O)c3ccc(C)cc3)cc2OC[C@H](C)N(C(=O)NC(C)C)C[C@H]1C	/	/	/	0	/	/
C[C@H](CO)N1C[C@H](C)[C@@H](CN(C)Cc2ccc(Cl)c(Cl)c2)Oc2ccc(NC(=O)Cc3ccccc3)cc2C1=O	0	-2	7	20	-3	-4
C[C@@H]1CN([C@@H](C)CO)C(=O)c2cc(NC(=O)Cc3cn(C)c4ccccc34)ccc2O[C@H]1CN(C)Cc1ccc(Cl)c(Cl)c1	0	13	26*	-4	-1	6
CC(C)NC(=O)Nc1ccc2c(c1)C(=O)N([C@H](C)CO)C[C@H](C)[C@@H](CN(C)Cc1ccc(Cl)c(Cl)c1)O2	-3	-18	24*	2	1	4
C[C@H](CO)N1C[C@H](C)[C@@H](CN(C)Cc2ccc(Cl)c(Cl)c2)Oc2ccc(NC(=O)Cc3cn(C)c4ccccc34)cc2C1=O	0	2	-1	17	13	3
C[C@@H]1CN([C@@H](C)CO)C(=O)c2cc(NC(=O)Cc3ccccc3)ccc2O[C@@H]1CN(C)Cc1ccc(Cl)c(Cl)c1	-2	18	8	35*	-6	-16

Assay outcomes (PubChem BioAssay)
